Measured values published in PubChem BioAssay AID1224863 (Southern Research Institute, 2016).
This is a selection; strong and weak results do not stand in their true shares. Activity calls are given as the source filed them.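 How the source made its calls: active means highest signal at least 8 times that of the reference protease inhibitor control at some dose; inactive means the rest.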

Chains of the proteins cited; added tags and fusions are not shown. A line that says so, or that is headed by a name, gives the form on record, which may keep a tag or linker.
UniProt P13569, with tags, fused parts or gaps F508del: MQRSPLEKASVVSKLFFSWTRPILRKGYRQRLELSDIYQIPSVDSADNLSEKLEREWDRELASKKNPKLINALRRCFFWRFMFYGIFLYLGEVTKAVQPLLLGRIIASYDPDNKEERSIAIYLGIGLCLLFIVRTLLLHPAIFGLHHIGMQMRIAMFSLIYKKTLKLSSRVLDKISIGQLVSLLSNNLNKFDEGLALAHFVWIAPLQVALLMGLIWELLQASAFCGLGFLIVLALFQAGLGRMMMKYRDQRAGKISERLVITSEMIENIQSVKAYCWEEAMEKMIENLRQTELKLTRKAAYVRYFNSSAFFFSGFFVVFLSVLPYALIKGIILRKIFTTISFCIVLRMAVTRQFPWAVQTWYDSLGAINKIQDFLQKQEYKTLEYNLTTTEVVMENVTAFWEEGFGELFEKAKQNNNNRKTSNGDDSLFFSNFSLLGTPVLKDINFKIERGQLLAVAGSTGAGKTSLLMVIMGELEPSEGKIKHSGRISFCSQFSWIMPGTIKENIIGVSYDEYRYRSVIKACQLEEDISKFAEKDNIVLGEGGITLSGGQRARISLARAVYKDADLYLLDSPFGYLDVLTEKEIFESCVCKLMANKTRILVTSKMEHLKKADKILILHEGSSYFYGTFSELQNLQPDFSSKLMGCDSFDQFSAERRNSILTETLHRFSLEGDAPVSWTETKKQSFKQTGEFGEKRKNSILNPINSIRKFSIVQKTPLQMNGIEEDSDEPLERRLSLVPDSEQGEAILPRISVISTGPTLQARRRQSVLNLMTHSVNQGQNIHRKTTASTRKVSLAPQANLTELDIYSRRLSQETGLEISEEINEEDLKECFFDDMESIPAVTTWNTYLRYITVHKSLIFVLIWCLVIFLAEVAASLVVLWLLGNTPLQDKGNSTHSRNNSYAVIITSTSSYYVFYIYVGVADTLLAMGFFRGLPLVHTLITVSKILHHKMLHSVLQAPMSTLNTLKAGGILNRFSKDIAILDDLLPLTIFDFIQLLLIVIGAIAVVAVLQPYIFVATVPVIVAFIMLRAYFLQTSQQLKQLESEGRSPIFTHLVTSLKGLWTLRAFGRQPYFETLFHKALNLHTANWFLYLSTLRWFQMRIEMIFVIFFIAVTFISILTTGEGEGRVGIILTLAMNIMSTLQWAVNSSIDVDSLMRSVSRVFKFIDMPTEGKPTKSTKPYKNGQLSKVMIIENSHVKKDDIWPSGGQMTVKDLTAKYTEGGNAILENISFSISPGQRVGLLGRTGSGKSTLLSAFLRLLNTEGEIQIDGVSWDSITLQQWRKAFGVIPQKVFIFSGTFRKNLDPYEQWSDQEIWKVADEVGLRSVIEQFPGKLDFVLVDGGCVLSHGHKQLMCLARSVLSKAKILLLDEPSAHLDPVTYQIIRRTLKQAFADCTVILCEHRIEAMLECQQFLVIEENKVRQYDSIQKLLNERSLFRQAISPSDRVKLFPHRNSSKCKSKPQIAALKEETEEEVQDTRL

The compounds below were run against Cystic fibrosis transmembrane conductance regulator (Homo sapiens) (UniProt P13569) (assay: total CFTR protein upregulators, primary screen, cell-based, HeLa F508del-CFTR, immunofluorescence, viability (AID 1224863)). Conditions: 24 h, library dosed in µg/mL.

Q: `CC(C)(C)n1nc(C(=O)NCC2(N3CCOCC3)CCCCC2)cc1C1CC1` was tested. Which outcome did it give?
A: inactive

Q: `Cc1cc(C(=O)NCC2(N3CCOCC3)CCCCC2)c(C)o1` was tested. Which outcome did it give?
A: inactive
